In the supplement of paper PMC12669032:
For some assays here: Most of the hits are listed elsewhere, so they are rarer here than in the full data.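 Rule for the calls: active = AUC reduced over 20% with Padj below 0.05 in at least 2 of 3 replicates; inactive = otherwise.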 The entries are a selection whose mix differs from that of the whole data set.

Assays:
Test in all cases: growth AUC relative to DMSO control (median of replicates) (fraction); higher = more growth (less inhibition), active = hit call of the paper
Details in all cases: 20 µM; 24 h
Bacteroides caccae = test system: Bacteroides caccae
In short: (§1)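 Each value is the median of three biological replicates, grown on separate days, of a gut bacterial monoculture incubated anaerobically at 37 °C in mGAM with 20 µM compound (1% DMSO). Cultures started at OD600 0.05 and were read at OD600 hourly for 24 h, with the minimum OD set to 0. Area under the growth curve was normalised to the plate median of solvent-only wells, or to row and column medians on the industrial chemical plate.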

Bacteroides clarus = test system: Bacteroides clarus
In short: as §1

Bacteroides dorei = test system: Bacteroides dorei
In short: as §1

Bacteroides stercoris = test system: Bacteroides stercoris
In short: as §1

[1] = test system: Bacteroides thetaiotaomicron
In short: as §1

Bacteroides uniformis = test system: Bacteroides uniformis
In short: as §1

[2] = test system: Bifidobacterium longum subsp. longum
In short: as §1

Clostridium difficile = test system: Clostridium difficile
In short: as §1

Escherichia coli ED1a = test system: Escherichia coli ED1a
In short: as §1

Escherichia coli IAI1 = test system: Escherichia coli IAI1
In short: as §1

Eubacterium rectale = test system: Eubacterium rectale
In short: as §1

[3] = test system: Fusobacterium nucleatum subsp. animalis
In short: as §1

Lactobacillus gasseri = test system: Lactobacillus gasseri
In short: as §1

Lactobacillus paracasei = test system: Lactobacillus paracasei
In short: as §1

Odoribacter splanchnicus = test system: Odoribacter splanchnicus
In short: as §1

[4] = test system: Parabacteroides distasonis
In short: as §1

Parabacteroides merdae = test system: Parabacteroides merdae
In short: as §1

Roseburia intestinalis = test system: Roseburia intestinalis
In short: as §1

Streptococcus salivarius = test system: Streptococcus salivarius
In short: as §1

Measured: growth AUC

CCOc1nc(C(Cl)(Cl)Cl)ns1
inactive: Bacteroides caccae 1 | Bacteroides clarus 0.991 | Bacteroides dorei 0.985 | Bacteroides stercoris 0.906 | [1] 1.02 | Bacteroides uniformis 0.993 | [2] 1.02 | Clostridium difficile 0.994 | Escherichia coli ED1a 0.972 | Escherichia coli IAI1 = 0.967 | Eubacterium rectale 1.01 | [3] 1.01 | Lactobacillus gasseri 1 | Lactobacillus paracasei 0.885 | Odoribacter splanchnicus 1.06 | [4] 1.05 | Parabacteroides merdae 0.979 | Roseburia intestinalis 0.973 | Streptococcus salivarius 0.976

CCOP(=S)(OCC)Oc1ncn(-c2ccccc2)n1
active: [4] 0.701
inactive: Bacteroides caccae 0.927 | Bacteroides clarus 1.01 | Bacteroides dorei 0.95 | Bacteroides stercoris 0.962 | [1] 0.979 | Bacteroides uniformis 0.962 | [2] 1.01 | Clostridium difficile 0.968 | Escherichia coli ED1a 0.99 | Escherichia coli IAI1 = 0.993 | Eubacterium rectale 1.09 | [3] 0.829 | Lactobacillus gasseri 0.955 | Lactobacillus paracasei 1 | Odoribacter splanchnicus 1.02 | Parabacteroides merdae 0.975 | Roseburia intestinalis 0.947 | Streptococcus salivarius 1
